Read-outs that look alike come from different tables or passages of the source.

Experiment [1] addresses T1, αvβ3 (Homo sapiens, UniProt P05106+P06756).
T1 construct: purchased Immunological Sciences (Rome, Italy)
As to the kind of experiment: Competitive integrin binding assay (isoDGR/STV-HRP probe), αvβ3-coated plates.

Experiment [2] addresses T2, αvβ6 (Homo sapiens, UniProt P06756+P18564).
T2 construct: recombinant human αvβ6 extracellular domain (R&D Systems); purchased R&D Systems (Minneapolis, Minn.)
As to the kind of experiment: Competitive integrin binding assay (isoDGR/STV-HRP probe), αvβ6-coated plates.

The target in experiment [3] is T3, αvβ5 (Homo sapiens, UniProt P06756+P18084).
T3 construct: purchased Immunological Sciences (Rome, Italy)
As to the kind of experiment: Competitive integrin binding assay (isoDGR/STV-HRP probe), αvβ5-coated plates.

Experiment [4] deals with αvβ8 (Homo sapiens, UniProt P06756+P26012). As to the kind of experiment: Competitive integrin binding assay (isoDGR/STV-HRP probe), αvβ8-coated plates.

For `CC(C)C[C@H](NC(=O)[C@H](CC(=O)O)NC(=O)CNC(=O)[C@H](CCCNC(=N)N)NC(=O)[C@H](CC(C)C)NC(=O)[C@H](CC(N)=O)NC(=O)[C@@H]1CCCN1C(=O)[C@@H](NC(=O)[C@H](C)NC(=O)[C@@H](N)CC(N)=O)C(C)C)C(=O)N[C@@H](CCC(N)=O)C(=O)N[C@H](C(=O)N[C@@H](CC(C)C)C(=O)N[C@@H](C)C(=O)N[C@@H](CCC(N)=O)C(=O)N[C@@H](CCCCN)C(=O)N[C@H](C(=O)N[C@@H](C)C(=O)N[C@@H](CCCNC(=N)N)C(=O)N[C@H](C(=O)O)[C@@H](C)O)C(C)C)C(C)C` [peptide 6], the Ki is 26200 ± 7390 nM in experiment [1]; 0.9 ± 0.2 nM in experiment [2]; 0.9 ± 0.2 nM in experiment [2] (read-out: Binding affinity for αvβ6 Ki); 0.9 nM in experiment [2] (read-out: Ki αvβ6); 15400 ± 2420 nM in experiment [3]; 69 ± 12 nM in experiment [4].
